# Binding of CDR-mutated scFvs to a peptide of the spike HR2 region

Antigen: PDVDLGDISGINAS, a 14-residue peptide of the SARS-CoV-2 spike HR2 region.

The variants keep the heavy chain, the linker and the frameworks of Ab-14 (scFv order VH, a 15-residue (Gly4Ser)3 linker, VL).
VH: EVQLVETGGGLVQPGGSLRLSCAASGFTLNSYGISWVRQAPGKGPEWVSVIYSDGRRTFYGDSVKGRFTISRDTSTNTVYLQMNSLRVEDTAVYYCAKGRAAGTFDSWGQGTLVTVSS
VL: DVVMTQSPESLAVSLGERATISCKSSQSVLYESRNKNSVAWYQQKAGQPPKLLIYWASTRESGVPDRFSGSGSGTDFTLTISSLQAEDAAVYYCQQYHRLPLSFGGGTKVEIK

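Variants in AAYL50 differ from the parent at up to three CDR positions; double and triple changes were sampled at random. In AlphaSeq, yeast of one mating type display the scFv and yeast of the other type display the target. Mating (16 h, 30 °C) was followed by selection of diploids and sequencing of their barcodes. Scores were corrected for input abundance and mapped to Kd with protein pairs of known affinity run in the same pool. Mating was done three times.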

Substitutions are numbered in sequence along the VL above, starting at 1 (not Kabat).
Kd is apparent (estimated from mating counts) and averaged on the log scale over replicates with a signal. Smaller is tighter.
"not detected" means that the variant was in the library but no mating with the target was seen in any replicate; the authors take this as a sign of poor binding, and no number exists.
Empty control strains, which show no peptide, gave a signal in 18% of pairings with library AAYL50; the median was 15 µM and 95% of these signals were weaker than 970 nM. No background was subtracted.

{"changes": "S62W R99N L102V", "Kd (apparent)": "not detected", "seen in": "0 of 3"}
{"changes": "K24M S28M L100W", "Kd (apparent)": "not detected", "seen in": "0 of 3"}
{"changes": "S62Y L102T", "Kd (apparent)": "4.3 nM", "seen in": "3 of 3"}
{"changes": "K24D Y97F L100P", "Kd (apparent)": "not detected", "seen in": "0 of 3"}
{"changes": "T59G Q95M P101C", "Kd (apparent)": "530 µM", "seen in": "1 of 3"}
{"changes": "S26Q Q27M Y31V", "Kd (apparent)": "4.0 nM", "seen in": "3 of 3"}
{"changes": "A57K T59D Q96W", "Kd (apparent)": "190 µM", "seen in": "1 of 3"}
{"changes": "V29C R60A Q95A", "Kd (apparent)": "11 µM", "seen in": "1 of 3"}
{"changes": "N37P H98Q L100Q", "Kd (apparent)": "890 nM", "seen in": "1 of 3"}
{"changes": "A40H A57T T59I", "Kd (apparent)": "6.5 µM", "seen in": "1 of 3"}
{"changes": "V29F Y31N N35D", "Kd (apparent)": "4.4 nM", "seen in": "3 of 3"}
{"changes": "S33T K36H T59L", "Kd (apparent)": "20 nM", "seen in": "3 of 3"}
{"changes": "S25M N37P Q96W", "Kd (apparent)": "3.7 nM", "seen in": "3 of 3"}
{"changes": "Q27H S28F S33F", "Kd (apparent)": "5.2 µM", "seen in": "2 of 3"}
{"changes": "E32Q S62Q L100I", "Kd (apparent)": "44 nM", "seen in": "3 of 3"}
{"changes": "S58V L102F S103F", "Kd (apparent)": "48 nM", "seen in": "3 of 3"}
{"changes": "K24P S25A S62C", "Kd (apparent)": "200 nM", "seen in": "3 of 3"}
{"changes": "Y31N R60L R99C", "Kd (apparent)": "67 nM", "seen in": "3 of 3"}
{"changes": "W56G R60M L100A", "Kd (apparent)": "not detected", "seen in": "0 of 3"}
{"changes": "S33F A57D T59D", "Kd (apparent)": "1.1 µM", "seen in": "1 of 3"}
{"changes": "N35K V39H Q96P", "Kd (apparent)": "not detected", "seen in": "0 of 3"}
{"changes": "S33W K36Q H98L", "Kd (apparent)": "16 nM", "seen in": "3 of 3"}
{"changes": "N35I K36G P101M", "Kd (apparent)": "250 µM", "seen in": "2 of 3"}
{"changes": "Y31S A40V P101C", "Kd (apparent)": "not detected", "seen in": "0 of 3"}
{"changes": "L30T N35S T59C", "Kd (apparent)": "87 nM", "seen in": "3 of 3"}
{"changes": "R34I Y97P", "Kd (apparent)": "not detected", "seen in": "0 of 3"}
{"changes": "S28D R99H L102V", "Kd (apparent)": "4.7 nM", "seen in": "3 of 3"}
{"changes": "S26Y T59I P101M", "Kd (apparent)": "16 nM", "seen in": "3 of 3"}
{"changes": "E32G S38T Q95Y", "Kd (apparent)": "not detected", "seen in": "0 of 3"}
{"changes": "S62D Q95E L100M", "Kd (apparent)": "17 nM", "seen in": "3 of 3"}
{"changes": "K24P S26C S28C", "Kd (apparent)": "3.2 µM", "seen in": "2 of 3"}

The first 3 entries again:

changes	Kd (apparent)	seen in
S62W R99N L102V	not detected	0 of 3
K24M S28M L100W	not detected	0 of 3
S62Y L102T	4.3 nM	3 of 3

From the AlphaSeq antibody data of Engelhart et al. 2022 (doi:10.1038/s41597-022-01779-4), copy in the FLAb collection.